Entries after “also recorded” stand apart in the source; their conditions may differ.

A short description of data set [1]: Water proton relaxation measurements / NMRD profiles. The data set is classed as physicochemical. The settings on record: 25.0 mg/mL (high concentration), 298 K. The source says:
The paramagnetic relaxivity (r1p) of Gd (III) complexes is given by:1 r1p∝1/T1MH=Kf(τR) where K is a constant related to the strength of the dipolar interaction between the protons and the electronic magnetic moment, and τR is the correlation time associated with the reorientation of the Gd-H magnetic vector. This means that slowly moving high molecular weight systems are endowed with higher relaxivity than rapidly reorienting low molecular weight ones. In the case of self assembling Gd-containing systems, the extent of aggregation may be evaluated through the measure of the water proton longitudinal relaxation rate of its aqueous solution. […] NMRD profiles were acquired below (black circles) and above (white ones) the CAC values determined by ANS titration and ^1HNMR. […] Data were analyzed using the Solomon-Bloembergen-Morgan model, [18], considering one water molecule in the inner coordination sphere (q = 1) and fixing the exchange lifetime (τM) to a reliable value ([…]) on the basis of those previously reported for mono-amido DOTA derivatives[19]–[22]. The quantitative analysis of the NMRD profile of the aggregated form was not satisfactory when the simple inner- outer-sphere model was used, so the Lipari-Szabo approach was used for the description of the rotational dynamics. […]

Data set [2] is described as follows: Transmission electron microscopy of self-assembled conjugates. The data set is classed as physicochemical. The settings on record: 5.0 mg/mL solution dried on grid, phosphotungstic acid stain.

With Gd-DOTA-L6-F2 [reference compound], in data set [1], the “aggregation state from NMRD profile and τR” value was “inability of the system to self-aggregate even at high concentration”. The “supramolecular aggregation / morphology in TEM images” value in data set [2] is recorded as “do not show any supramolecular aggregate; also recorded: unaggregated form”.

These data come from paper PMC5428233, “Cross-beta nanostructures based on dinaphthylalanine Gd-conjugates loaded with doxorubicin” (Scientific Reports, 2017).
